These results are taken from patent US20240360082A1, “SUBSTITUTED PYRIDONE COMPOUNDS USEFUL TO TREAT ORTH[…]” (priority 2021, published 2024).

Molecules are shown by their SMILES. Like-named read-outs stand apart in the source and are kept apart here.

The assay has as its system influenza virus (multiple flu strains). As to the kind of experiment: organism not typed. Particulars: MDCK.
[1] abbreviates: read-out: NA Alaska H3N2, NA assay, Alaska H3N2 strain.
Setting [2] is: read-out: NA CAL H1N1, NA assay, CAL H1N1 strain.
[3] abbreviates: read-out: NA—PR8 H1N1, NA assay, PR8 H1N1 strain.
The mark [4] stands for this setting: read-out: NA Alaska H3N2 IC50, NA assay, Alaska H3N2 strain.
Where [5] appears, read: read-out: NA CAL H1N1 IC50, NA assay, CAL H1N1 strain.

On to `NC(=O)c1cc(-c2ccc(OCC3CCOCC3)cc2)c(C(F)(F)F)[nH]c1=O` [Example 56, 2-oxo-5-(4-((tetrahydro-2H-pyran-4-yl)methoxy)phenyl)-6-(trifluoromethyl)-1,2-dihydropyridine-3-carboxamide], for which the IC50 under setting [1] lay within 100 to 1000 nM and the IC50 under setting [2] was in the range of 1000 to 5000 nM. Taken in the same sequence, the figures for `NC(=O)c1cc(-c2ccc(OCc3cc(Cl)cnc3F)cc2)c(C(F)(F)F)[nH]c1=O` [Example 104, 5-(4-((5-chloro-2-fluoropyridin-3-yl)methoxy)phenyl)-2-oxo-6-(trifluoromethyl)-1,2-dihydropyridine-3-carboxamide] were 100 to 1000 nM and 100 to 1000 nM.

For the molecule `N#Cc1cccc(-c2cc(C(N)=O)c(=O)[nH]c2C(F)(F)F)c1` [Example 8, 5-(3-cyanophenyl)-2-oxo-6-(trifluoromethyl)-1,2-dihydropyridine-3-carboxamide], under setting [3], the IC50 lay within 10000 to 25000 nM. For `NC(=O)c1cc(-c2ccc(CN3CCOCC3)c(F)c2)c(C(F)(F)F)[nH]c1=O` [Example 36, 5-(3-fluoro-4-(morpholinomethyl)phenyl)-2-oxo-6-(trifluoromethyl)-1,2-dihydropyridine-3-carboxamide], the IC50 was in the range of 1000 to 5000 nM under setting [1] and 5000 to 10000 nM under setting [2]. With `NC(=O)c1cc(-c2ccc(OCc3cncnc3)cc2)c(C(F)(F)F)[nH]c1=O` [Example 82, 2-oxo-5-(4-(pyrimidin-5-ylmethoxy)phenyl)-6-(trifluoromethyl)-1,2-dihydropyridine-3-carboxamide], the IC50 reads like this: under setting [1], 100 to 1000 nM; under setting [2], 100 to 1000 nM. As for `NC(=O)c1cc(-c2ccc(OCC3COCC4(CC4)O3)cc2)c(C(F)(F)F)[nH]c1=O` (single isomer, unassigned) [Example 335, (4-(4,7-dioxaspiro[2.5]octan-5-ylmethoxy)phenyl)-2-oxo-6-(trifluoromethyl)-1,2-dihydropyridine-3-carboxamide], the IC50 was 10 to 100 nM under setting [4] and 10 to 100 nM under setting [5]. As to `NC(=O)c1cc(-c2ccc(OCc3cc(Cl)ccn3)cc2)c(C(F)(F)F)[nH]c1=O` [Example 117, 5-(4-((4-chloropyridin-2-yl)methoxy)phenyl)-2-oxo-6-(trifluoromethyl)-1,2-dihydropyridine-3-carboxamide], the IC50 runs as follows: under setting [1], 100 to 1000 nM; under setting [2], 10 to 100 nM. For `CCCNc1cccc(COc2ccc(-c3cc(C(N)=O)c(=O)[nH]c3C(F)(F)F)cc2)c1` [Example 66, 2-oxo-5-(4-((3-(propylamino)benzyl)oxy)phenyl)-6-(trifluoromethyl)-1,2-dihydropyridine-3-carboxamide] the same measures were 100 to 1000 nM and 100 to 1000 nM.

Consider `CCCCNC(=O)COc1ccc(-c2cc(C(N)=O)c(=O)[nH]c2C(F)(F)F)cc1` [Example 200, 5-(4-(2-(butylamino)-2-oxoethoxy)phenyl)-2-oxo-6-(trifluoromethyl)-1,2-dihydropyridine-3-carboxamide], for which the IC50 was in the range of 1000 to 5000 nM under setting [1] and 25000 to 50000 nM under setting [2]. In the case of `NC(=O)c1cc(-c2ccc(OCc3ccncn3)cc2)c(C(F)(F)F)[nH]c1=O` [Example 215, 2-oxo-5-(4-(pyrimidin-4-ylmethoxy)phenyl)-6-(trifluoromethyl)-1,2-dihydropyridine-3-carboxamide], the IC50 reads like this: under setting [4], 100 to 1000 nM; under setting [5], 5000 to 10000 nM. Take `CC(=O)N1CCOC(COc2ccc(-c3cc(C(N)=O)c(=O)[nH]c3C(F)(F)F)cc2)C1` (stereo not drawn) [Example 188, 5-(4-((4-acetylmorpholin-2-yl)methoxy)phenyl)-2-oxo-6-(trifluoromethyl)-1,2-dihydropyridine-3-carboxamide]: the IC50 under setting [1] lay in the range of 1000 to 5000 nM.

Turning to `NC(=O)c1cc(-c2ccc(COc3cccnc3)cc2)c(C(F)(F)F)[nH]c1=O` [Example 177, 2-oxo-5-(4-((pyridin-3-yloxy)methyl)phenyl)-6-(trifluoromethyl)-1,2-dihydropyridine-3-carboxamide], the IC50 under setting [1] lay within 100 to 1000 nM and the IC50 under setting [2] was in the range of 1000 to 5000 nM. For `COc1cncc(COc2ccc(-c3cc(C(N)=O)c(=O)[nH]c3C(F)(F)F)cc2)c1` [Example 146, 5-(4-((5-methoxypyridin-3-yl)methoxy)phenyl)-2-oxo-6-(trifluoromethyl)-1,2-dihydropyridine-3-carboxamide], the IC50 was in the range of 100 to 1000 nM under setting [1] and 100 to 1000 nM under setting [2]. Take `CC1COCCN1Cc1ccc(-c2cc(C(N)=O)c(=O)[nH]c2C(F)(F)F)cc1` (stereo not drawn) [Example 27, 5-(4-((3-methylmorpholino)methyl)phenyl)-2-oxo-6-(trifluoromethyl)-1,2-dihydropyridine-3-carboxamide]: the IC50 was 100 to 1000 nM under setting [1] and 1000 to 5000 nM under setting [2]. For the molecule `NC(=O)c1cc(-c2ccc(CN3CCOCC34CC4)cc2)c(C(F)(F)F)[nH]c1=O` [Example 30, 5-(4-((7-oxa-4-azaspiro[2.5]octan-4-yl)methyl)phenyl)-2-oxo-6-(trifluoromethyl)-1,2-dihydropyridine-3-carboxamide], the IC50 is 100 to 1000 nM under setting [1] and 100 to 1000 nM under setting [2]. In the case of `NC(=O)c1cc(-c2ccc(OCC3CNC(=O)C3)cc2)c(C(F)(F)F)[nH]c1=O` (stereo not drawn) [Example 88, 2-oxo-5-(4-((5-oxopyrrolidin-3-yl)methoxy)phenyl)-6-(trifluoromethyl)-1,2-dihydropyridine-3-carboxamide], under setting [1], the IC50 lay in the range of 5000 to 10000 nM.

Turning to `COc1ccc(-c2cc(C(N)=O)c(=O)[nH]c2C(F)(F)F)cc1F` [Example 14, 5-(3-fluoro-4-methoxyphenyl)-2-oxo-6-(trifluoromethyl)-1,2-dihydropyridine-3-carboxamide], the IC50 was 1000 to 5000 nM under setting [1], 10000 to 25000 nM under setting [2] and 1000 to 5000 nM under setting [3]. As for `NC(=O)c1cc(-c2ccc(OCc3ccccc3[N+](=O)[O-])cc2)c(C(F)(F)F)[nH]c1=O` [Example 76, 5-(4-((2-nitrobenzyl)oxy)phenyl)-2-oxo-6-(trifluoromethyl)-1,2-dihydropyridine-3-carboxamide], the IC50 runs as follows: under setting [1], 100 to 1000 nM; under setting [2], 100 to 1000 nM. Consider `NC(=O)c1cc(-c2ccc(OCc3cnc4nncn4c3)cc2)c(C(F)(F)F)[nH]c1=O` [Example 103, 5-(4-([1,2,4]triazolo[4,3-a]pyrimidin-6-ylmethoxy)phenyl)-2-oxo-6-(trifluoromethyl)-1,2-dihydropyridine-3-carboxamide], for which the IC50 fell in the range of 1000 to 5000 nM under setting [1] and 25000 to 50000 nM under setting [2]. Regarding `NC(=O)c1cc(-c2ccc(OC[C@@H]3COC[C@H](C4CC4)O3)cc2)c(C(F)(F)F)[nH]c1=O` [Example 404, 5-(4-(((2S,6S)-6-cyclopropyl-1,4-dioxan-2-yl)methoxy)phenyl)-2-oxo-6-(trifluoromethyl)-1,2-dihydropyridine-3-carboxamide], the IC50 was in the range of 10 to 100 nM under setting [4] and 10 to 100 nM under setting [5]. Turning to `CCCCCCCNc1ncc(COc2ccc(-c3cc(C(N)=O)c(=O)[nH]c3C(F)(F)F)cc2)cn1` [Example 164, 5-(4-((2-(heptylamino)pyrimidin-5-yl)methoxy)phenyl)-2-oxo-6-(trifluoromethyl)-1,2-dihydropyridine-3-carboxamide], the IC50 by setting is: under setting [1], 10 to 100 nM; under setting [2], 100 to 1000 nM. Consider `N#CCc1ccc(-c2cc(C(N)=O)c(=O)[nH]c2C(F)(F)F)cc1` [Example 20, 5-(4-(cyanomethyl)phenyl)-2-oxo-6-(trifluoromethyl)-1,2-dihydropyridine-3-carboxamide], for which the IC50 under setting [3] is 1000 to 5000 nM. For the molecule `NC(=O)c1cc(-c2ccc(OCC3CCO3)cc2)c(C(F)(F)F)[nH]c1=O` (stereo not drawn) [Example 225, 5-(4-(oxetan-2-ylmethoxy)phenyl)-2-oxo-6-(trifluoromethyl)-1,2-dihydropyridine-3-carboxamide], the IC50 under setting [4] was in the range of 100 to 1000 nM and the IC50 under setting [5] was 1000 to 5000 nM. Take `Cc1cc(-c2cc(C(N)=O)c(=O)[nH]c2C(F)(F)F)ccc1OCC1COCCO1` (stereo not drawn) [Example 242, 5-(4-((1,4-dioxan-2-yl)methoxy)-3-methylphenyl)-2-oxo-6-(trifluoromethyl)-1,2-dihydropyridine-3-carboxamide]: the IC50 lay in the range of 100 to 1000 nM under setting [4] and 1000 to 5000 nM under setting [5]. Consider `CC(C)S(=O)(=O)N1CCOC(COc2ccc(-c3cc(C(N)=O)c(=O)[nH]c3C(F)(F)F)cc2)C1` (stereo not drawn) [Example 191, 5-(4-((4-(isopropylsulfonyl)morpholin-2-yl)methoxy)phenyl)-2-oxo-6-(trifluoromethyl)-1,2-dihydropyridine-3-carboxamide], for which the IC50 is 100 to 1000 nM under setting [1] and 25000 to 50000 nM under setting [2]. Regarding `CN1C(=O)COCC1COc1ccc(-c2cc(C(N)=O)c(=O)[nH]c2C(F)(F)F)cc1` (stereo not drawn) [Example 251, 5-(4-((4-methyl-5-oxomorpholin-3-yl)methoxy)phenyl)-2-oxo-6-(trifluoromethyl)-1,2-dihydropyridine-3-carboxamide], the IC50 under setting [4] lay in the range of 1000 to 5000 nM. Regarding `NC(=O)c1cc(-c2ccc(OCc3cnc(OC4CCOC4)nc3)cc2)c(C(F)(F)F)[nH]c1=O` (stereo not drawn) [Example 154, 2-oxo-5-(4-((2-((tetrahydrofuran-3-yl)oxy)pyrimidin-5-yl)methoxy)phenyl)-6-(trifluoromethyl)-1,2-dihydropyridine-3-carboxamide], the IC50 is, setting by setting: under setting [1], 100 to 1000 nM; under setting [2], 5000 to 10000 nM. For `CN1C(COc2ccc(-c3cc(C(N)=O)c(=O)[nH]c3C(F)(F)F)cc2)COCC12COC2` (stereo not drawn) [Example 206, 5-(4-((5-methyl-2,8-dioxa-5-azaspiro[3.5]nonan-6-yl)methoxy)phenyl)-2-oxo-6-(trifluoromethyl)-1,2-dihydropyridine-3-carboxamide], the IC50 by setting is: under setting [1], 100 to 1000 nM; under setting [2], 5000 to 10000 nM. Turning to `NC(=O)c1cc(-c2ccc(OCc3cncc(N4CCOCC4)c3)cc2)c(C(F)(F)F)[nH]c1=O` [Example 179, 5-(4-((5-morpholinopyridin-3-yl)methoxy)phenyl)-2-oxo-6-(trifluoromethyl)-1,2-dihydropyridine-3-carboxamide], the IC50 is, setting by setting: under setting [1], 100 to 1000 nM; under setting [2], 1000 to 5000 nM.
